The text below walks through data of paper PMC9919490, “Synthesis and Biological Evaluation of Novel Dispiro-Indolinones with Anticancer Activity” (Molecules, 2023).

In the data set the test system is P388. The format is in vivo. Here is the method:
To preliminary estimate the antitumor effect of the compound in vivo, transplant P388 and HCT116 xenograft mouse models were used.
Prior to the trials, the animals were split into different groups (five mice per group). One group was monitored as a control population, where the animals were kept untreated, while the other groups were subjected to the tested compound. […] Four independent trials were carried out.
For the first evaluation, the sample was initially injected i.p. on day 2 of the study, and the treatment was subsequently continued during the following 9 days (total 10 d course). The typical doses were calculated considering the average body weight of the animals (20 g) and ranged between groups 1 and 3; group 4 was assigned as a control population. […] To verify the obtained results, we performed the second evaluation using the following schedule: the first group was administered i.p. with 500 mg/kg (5000 mg/kg), the second group was given 750 mg/kg (7500 mg/kg), and the third group was given 1000 mg/kg (10,000 mg/kg). We also carried out the third trial with an appropriate dose of 1000 mg/kg. For p.o. administration (trial 4), we used a single dose (170 mg/kg) of the unmodified compound; the cumulative dose was 1700 mg/kg.
DBA2 mice were used as donors of cancerous mass; a total of 50 animals were recruited. Twenty-three conventional, immunodeficient female mice (BALB/c nude, 20–23 g) were housed in RAMS and used as donors and recipients for HCT116 cells.
For the evaluation of the compound against leucosis in vivo, we used 5 and 8 passages of P388 culture. […]

On to `CCOc1ccc(N2C(=O)C3(NC2=S)C(c2ccc(Cl)cc2)CN(C)C32C(=O)Nc3ccc(Br)cc32)cc1` (stereo not shown) [Compound 29], for which the “anticancer effect after p.o. administration” value (fourth trial, unmodified compound, p.o. 170 mg/kg o.d. 10 days) is reported as “ineffective”. The “toxic effects after p.o. administration” value (mouse, in vivo, po, 170 mg/kg) is listed as “no toxic effects were observed”. Further, the “outcome at 1200 mg/kg” value (sample dose 1200 mg/kg) was “lethal outcomes”. The “anticancer effect at lower doses” value (second trial, lower doses (500 mg/kg o.d.)) is on record as “did not provide any statistically significant results”.
